Values quoted from earlier work in patent US11219627B2, “Clearance of amyloid beta” (priority 2014, dated 2022).

System: Alzheimer patients
Settings: cited from earlier work

## bapineuzumab: an antibody to the N-terminus of Aβ
78 weeks
  cortical amyloid lower in treated than in untreated patients: 25%
ApoE4+ homozygotes
  ARIA occurrence (fraction): About ⅓
ApoE4+ patients at low dose, and ApoE4− patients at high dose
  ARIA occurrence: about 20%
ApoE4 carriers
  deaths: 2.2%
noncarriers
  deaths: 2.1%
Retrospective review of MRIs
  incidence of vasogenic edema: 17%

Where two headings read alike, the source gives them in different places.
